This passage reports EC50 results from US20190359645A1, “2'3'-CYCLIC DINUCLEOTIDES COMPRISING CARBOCYCLIC NUCLEOTIDE” (Institute of Organic Chemistry and Biochemistry ASCR, V.V.I., priority 2018, published 2019).

The chains behind the UniProt entries cited, without tags or fusion partners.
UniProt Q86WV6, whole entry H232R: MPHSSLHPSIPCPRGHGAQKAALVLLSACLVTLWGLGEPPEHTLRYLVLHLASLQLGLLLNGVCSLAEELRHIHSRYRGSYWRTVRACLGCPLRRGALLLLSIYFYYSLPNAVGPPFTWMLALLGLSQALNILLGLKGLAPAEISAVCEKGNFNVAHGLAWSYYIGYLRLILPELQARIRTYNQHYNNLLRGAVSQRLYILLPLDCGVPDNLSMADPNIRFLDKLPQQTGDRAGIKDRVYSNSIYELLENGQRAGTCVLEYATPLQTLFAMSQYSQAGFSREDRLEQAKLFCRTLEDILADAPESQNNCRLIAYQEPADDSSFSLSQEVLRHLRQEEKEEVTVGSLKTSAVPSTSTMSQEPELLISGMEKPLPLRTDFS

One may read the EC50 as the midpoint of the concentration-response curve. Low readings indicate an effect from little substance, high ones a need for much substance.

Molecules are shown by their SMILES.

The assay deals with WT STING (Homo sapiens, UniProt Q86WV6, H232R). The assay is described as follows: 293T wt STING reporter assay. The assay is classed as cell-based. Set-up: host or cells: 293T (ATCC CRL-3216), stably transfected; also carries the 4xISRE firefly luciferase reporter. As to conditions: 293T WT STING EC50, 293T wtSTING-FL cells, no digitonin, 7 h incubation, ISRE firefly luciferase reporter. The text has this: Two complementary oligonucleotides of the sequence […] CTTGGAAAAC […] […] (SEQ ID NO: 1) and […] TCACTTTCCAAGATCTTT (SEQ ID NO:2) containing four interferon-sensitive response elements (ISRE) were synthesized by Sigma Aldrich (Czech Republic, Prague). The oligonucleotides were mixed in equal molar amounts, hybridized, and cleaved by restriction endonucleases HindIII (cat. #. R^0104S, NEB, Ipswich, USA) and BglII (cat. # R^0144S, NEB, Ipswich, USA). Ultimately, they were ligated into plasmid pGL4.27 (cat. # E6651, Promega, Madison, USA) linearized with the same enzymes. As a result, the sequence with four ISRE sites was placed upstream of the minimum promoter of firefly luciferase reporter gene.
293T cells (cat. # CRL-3216, ATCC, Manassas, USA) were seeded a day before transfection at density 125,000 cells per cm^2 onto poly-D-lysine (cat. # P6407, Sigma Aldrich, Czech Republic) coated six well plates in antibiotic free DMEM with high glucose (cat. # D5796, Sigma Aldrich, Czech Republic) supplemented with 10% heat inactivated FBS (cat. # S1520, Biowest, Riverside, USA). […]
(Reporter assays use an easily measured gene product as a stand-in for the process of interest.)

For `CC(C)(C)C(=O)OCSP1(=O)OC[C@H]2O[C@@H](n3cnc4c(N)ncnc43)[C@H](F)[C@@H]2OP(=O)(SCOC(=O)C(C)(C)C)OC[C@H]2C[C@@H](n3cnc4c(=O)[nH]cnc43)[C@H](O1)[C@@H]2F` (single isomer, unassigned) [Compound 129d], it took 0.4 µM to reach a half-maximal effect (EC50). Consider `CC(C)(C)C(=O)OCSP1(=O)OC[C@H]2O[C@@H](n3cnc4c(N)ncnc43)[C@H](F)[C@@H]2OP(=O)(SCOC(=O)C(C)(C)C)OC[C@H]2C[C@@H](n3cnc4c(=O)[nH]cnc43)[C@H](O1)[C@@H]2F` (single isomer, unassigned) [Compound 129a], for which the EC50 worked out at 11 µM.
